The results in this text go back to article PMC10721916.

The target of this experiment is filamentous (F)-actin (rabbit) (UniProt P68135). The experiment in a line: co-sedimentation; high-speed F-actin co-sedimentation: 10 uM Vt and 20 uM F-actin in actin polymerization buffer (10 mM Tris, 200 mM KCl, 10 mM imidazole, 2.5 mM MgCl2, 1 mM EGTA, 2 mM DTT, pH 7.5), 1 h at room temperature, 185,000x g for 60 min; fraction of Vt in the pellet by SDS-PAGE ….

“vinculin tail domain (Vt) E1015A (domain or fragment)” yielded a reduction of F-actin binding against WT Vt of 2%. The result for “vinculin tail domain (Vt) E1021A (domain or fragment)” reads 2%. “vinculin tail domain (Vt) I997A (domain or fragment)”: the reduction of F-actin binding against WT Vt is 20%.
